Test results reported in paper PMC11053023, “Mechanism of Ψ-Pro/C-degron recognition by the CRL2^FEM1B ubiquitin ligase” (Nature Communications, 2024).
Values belong to the substance of their own block, whether it stands above or below them.

Tests used:
[1] = target: FEM1B-elongin B-elongin C ternary complex, wild type (human) (UniProt Q9UK73); test: ITC; SUMO fusion peptides (0.5-1 mM) titrated into 50 μM FEM1B-EB-EC in the cell, 25 °C, 20 mM Tris, 200 mM NaCl, pH 7.5, 1 mM EDTA; one-site binding model
[2] = target: FEM1B-EB-EC ternary complex (human) (UniProt Q9UK73); test: ITC; peptides (0.5-1 mM) titrated into 50 μM protein in the cell, 25 °C; 20 mM Tris, 200 mM NaCl, pH 7.5, 1 mM EDTA; one-site binding model
[3] = target: FEM1B-EB-EC complex with the FEM1B F549D/V584D/I587D/L588D mutant (human) (UniProt Q9UK73); test: as above
[4] = target: FEM1B-EB-EC complex with the FEM1B D356A/V391A/Q394A/F501A/H502A mutant (human) (UniProt Q9UK73); test: as above
[5] = target: FEM1B-EB-EC ternary complex with FEM1B F549D/V584D/I587D/L588D (human) (UniProt Q9UK73); test: ITC; SUMO fusion peptides (0.5-1 mM) titrated into 50 μM FEM1B-EB-EC in the cell, 25 °C, 20 mM Tris, 200 mM NaCl, pH 7.5, 1 mM EDTA; one-site binding model
[6] = target: FEM1B-EB-EC ternary complex with FEM1B D356A/V391A/Q394A/F501A/H502A (human) (UniProt Q9UK73); test: as above

Substance: SUMO-(GGGS)2-CUX1 656-678 (F-22A) (peptide)
stoichiometry N [1]: 0.72

Substance: SUMO-(GGGS)2-CCDC89 352-374 (P-1Q) (peptide)
Kd [1]: 6.7 µM | stoichiometry N [1]: 0.64

Substance: SUMO-(GGGS)2-CCDC89 352-374 Δ3 (peptide)
Kd [1]: 1.1 µM | stoichiometry N [1]: 0.37

Substance: SUMO-(GGGS)2-CCDC89 352-374 (P-1R) (peptide)
stoichiometry N [1]: 0.57

Substance: CCDC89 C-degron (C-term 23-mer), SUMO fusion (peptide)
Kd [2]: 2.2 µM | Kd [3]: 2.6 µM | Kd [4]: > 50 µM

Substance: CCDC89 C-degron variant with deletion of seven residues in the linker region (peptide)
Kd [2]: 8 µM

Substance: SUMO-(GGGS)2-CUX1 656-678 (L-3A) (peptide)
stoichiometry N [1]: 0.22

Substance: both C-degrons (CDK5R1, 23 aa and 10 aa)
Kd [4]: 7.8 to 8.8 µM

Substance: SUMO-(GGGS)2-CUX1 656-678 (Q-1A) (peptide)
Kd [1]: 2.6 µM | stoichiometry N [1]: 0.4

Substance: the P-1A, P-1Q, and P-1L substitutions (CCDC89 C-degron)
Kd [2]: 6.7 to 46 µM

Substance: PSMB5 C-degron P-1A, SUMO fusion (peptide)
fold reduction of binding against the WT PSMB5 C-degron [2]: 4.8 fold

Substance: SUMO-(GGGS)2-CUX1 656-678 (W-2A) (peptide)
stoichiometry N [1]: 0.42

Substance: SUMO-(GGGS)2-CCDC89 352-374 WT (peptide)
stoichiometry N [5]: 0.66 | stoichiometry N [1]: 0.58 | stoichiometry N [6]: 0.63

Substance: SUMO-(GGGS)2-CCDC89 352-374 Δ5 (peptide)
Kd [1]: 2.1 µM | stoichiometry N [1]: 0.42

Substance: CUX1 C-degron L-3A, SUMO fusion (peptide)
Kd [2]: 8.5 µM

Next, values leading:

Kd [1]: 6.7 µM | stoichiometry N [1]: 0.43
Substance: SUMO-(GGGS)2-CCDC89 352-374 (P-1L) (peptide)

stoichiometry N [1]: 1
Substance: SUMO-(GGGS)2-CCDC89 352-374 (H-21A) (peptide)

Kd [1]: 10.6 µM | stoichiometry N [1]: 0.5
Substance: SUMO-(GGGS)2-PSMB5 241-263 (P-1A) (peptide)

Kd [2]: 5.2 µM
Substance: CUX1 C-degron W-2A, SUMO fusion (peptide)

stoichiometry N [1]: 0.6
Substance: SUMO-(GGGS)2-CCDC89 352-374 Δ9 (peptide)

Kd [2]: 1.9 µM
Substance: CCDC89 C-degron P-1R, SUMO fusion (peptide)

Kd [2]: 1.4 to 6.8 µM
Substance: the five C-degrons (CCDC89, PSMB5, BEX2, CUX1 and MCRIP1)

stoichiometry N [1]: 0.76
Substance: SUMO-(GGGS)2-CCDC89 352-374 Δ7 (peptide)

stoichiometry N [1]: 1
Substance: SUMO-(GGGS)2-CCDC89 352-374 (H-21L) (peptide)

Kd [1]: > 46 µM | stoichiometry N [1]: 0.6
Substance: SUMO-(GGGS)2-CCDC89 352-374 (P-1A) (peptide)
